Results published in article PMC3198402 (PLoS ONE, 2011).

Target: A*0301 (Homo sapiens, UniProt P04439)
Test: biochemical
Format: binding

Q: For `CSCC[C@H](NC(=O)[C@H](CCCCN)NC(=O)[C@H](Cc1c[nH]c2ccccc12)NC(=O)[C@H](CC(C)C)NC(=O)[C@H](CC(N)=O)NC(=O)[C@H](Cc1ccc(O)cc1)NC(=O)[C@H](CCSC)NC(=O)[C@@H](N)C(C)C)C(=O)N[C@@H](CCCCN)C(=O)O` [YFV A3 15898], which Kd is on record?
A: 4 nM
